Values of other authors, collected in publication PMC6804113, “Cyclic Peptides Acting as Allosteric Inhibitors of Human Thymidylate Synthase and Cancer Cell Growth” (Molecules, 2019).

Key:
hTS = test system: hTS; parameters: method as in PMID 27250901; settings: lysates of HEK293T cells; ref [19]; cited from earlier work
C13 cells = settings: cited from earlier work

Substance: Leu-Ser-Cys-Gln-Leu-Tyr-Gln-Arg (LSCQLYQR; printed: Leu-Ser-Cys-Gln-Leu-Tyr-Gln-Arg) [LR]
- concentration of peptide bound to hTS (hTS): 2.5 µmol/L
- concentration of peptide interacting with other targets (hTS): 30 nmol/L
- intracellular concentration relative to extracellular concentration (C13 cells): 15 times
